The target of assay [1] is BRM (Homo sapiens, UniProt P51531). In words: ATPase catalytic activity of BRM, ADP-Glo in vitro biochemical assay. The conditions noted are these: for IC50: read-out: BRM IC50, 30 nM BRM, 400 μM ATP; for Ratio* (BRG1 IC50 (μM) divided by BRM IC50 (μM)): selectivity ratio BRG1 IC50 / BRM IC50. On the technique in general: ADP-Glo turns the ADP formed in a reaction into a luminescent signal.

Chains of the proteins cited; added tags and fusions are not shown.
UniProt P51531, whole entry: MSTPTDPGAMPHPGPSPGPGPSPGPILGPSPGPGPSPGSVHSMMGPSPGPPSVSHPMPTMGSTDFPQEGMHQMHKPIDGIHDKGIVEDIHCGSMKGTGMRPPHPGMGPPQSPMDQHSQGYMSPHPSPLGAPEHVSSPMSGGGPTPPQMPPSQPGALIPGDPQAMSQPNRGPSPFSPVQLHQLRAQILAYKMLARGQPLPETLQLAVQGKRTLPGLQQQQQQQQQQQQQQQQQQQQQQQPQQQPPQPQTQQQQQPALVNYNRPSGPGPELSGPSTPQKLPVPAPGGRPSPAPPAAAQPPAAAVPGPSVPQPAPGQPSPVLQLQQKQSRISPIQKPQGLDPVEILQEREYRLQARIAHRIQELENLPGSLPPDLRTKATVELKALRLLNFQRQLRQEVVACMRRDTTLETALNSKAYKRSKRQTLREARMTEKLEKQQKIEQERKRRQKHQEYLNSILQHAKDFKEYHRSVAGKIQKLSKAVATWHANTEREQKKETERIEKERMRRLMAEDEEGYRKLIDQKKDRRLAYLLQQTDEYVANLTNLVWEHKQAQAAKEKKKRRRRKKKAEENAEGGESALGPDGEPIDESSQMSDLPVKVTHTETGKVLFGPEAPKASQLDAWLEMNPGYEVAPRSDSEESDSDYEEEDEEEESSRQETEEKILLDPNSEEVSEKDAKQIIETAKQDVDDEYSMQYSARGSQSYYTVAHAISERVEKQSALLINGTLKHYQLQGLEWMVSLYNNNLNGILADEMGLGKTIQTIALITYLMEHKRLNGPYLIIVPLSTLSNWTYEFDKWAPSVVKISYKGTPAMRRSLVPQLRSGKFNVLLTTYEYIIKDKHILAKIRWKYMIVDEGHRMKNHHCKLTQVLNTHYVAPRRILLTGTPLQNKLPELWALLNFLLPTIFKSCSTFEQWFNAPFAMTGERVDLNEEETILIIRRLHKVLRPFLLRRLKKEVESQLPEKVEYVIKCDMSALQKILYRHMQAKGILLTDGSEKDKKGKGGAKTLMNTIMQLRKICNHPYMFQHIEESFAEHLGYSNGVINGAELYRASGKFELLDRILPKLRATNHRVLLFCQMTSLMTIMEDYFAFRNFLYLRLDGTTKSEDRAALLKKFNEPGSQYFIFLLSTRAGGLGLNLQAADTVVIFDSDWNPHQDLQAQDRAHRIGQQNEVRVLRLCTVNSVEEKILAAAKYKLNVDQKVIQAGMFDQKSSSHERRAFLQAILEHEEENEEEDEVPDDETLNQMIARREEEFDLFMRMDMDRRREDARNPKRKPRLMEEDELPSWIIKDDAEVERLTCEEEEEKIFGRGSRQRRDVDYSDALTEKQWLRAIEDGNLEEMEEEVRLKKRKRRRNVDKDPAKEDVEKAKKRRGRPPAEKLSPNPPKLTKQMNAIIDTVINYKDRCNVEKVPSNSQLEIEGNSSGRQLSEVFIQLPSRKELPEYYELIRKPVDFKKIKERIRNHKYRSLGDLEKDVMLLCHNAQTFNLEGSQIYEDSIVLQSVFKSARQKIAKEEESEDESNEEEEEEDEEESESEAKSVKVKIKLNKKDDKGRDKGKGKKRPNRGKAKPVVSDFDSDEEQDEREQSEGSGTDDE
UniProt P51532, whole entry: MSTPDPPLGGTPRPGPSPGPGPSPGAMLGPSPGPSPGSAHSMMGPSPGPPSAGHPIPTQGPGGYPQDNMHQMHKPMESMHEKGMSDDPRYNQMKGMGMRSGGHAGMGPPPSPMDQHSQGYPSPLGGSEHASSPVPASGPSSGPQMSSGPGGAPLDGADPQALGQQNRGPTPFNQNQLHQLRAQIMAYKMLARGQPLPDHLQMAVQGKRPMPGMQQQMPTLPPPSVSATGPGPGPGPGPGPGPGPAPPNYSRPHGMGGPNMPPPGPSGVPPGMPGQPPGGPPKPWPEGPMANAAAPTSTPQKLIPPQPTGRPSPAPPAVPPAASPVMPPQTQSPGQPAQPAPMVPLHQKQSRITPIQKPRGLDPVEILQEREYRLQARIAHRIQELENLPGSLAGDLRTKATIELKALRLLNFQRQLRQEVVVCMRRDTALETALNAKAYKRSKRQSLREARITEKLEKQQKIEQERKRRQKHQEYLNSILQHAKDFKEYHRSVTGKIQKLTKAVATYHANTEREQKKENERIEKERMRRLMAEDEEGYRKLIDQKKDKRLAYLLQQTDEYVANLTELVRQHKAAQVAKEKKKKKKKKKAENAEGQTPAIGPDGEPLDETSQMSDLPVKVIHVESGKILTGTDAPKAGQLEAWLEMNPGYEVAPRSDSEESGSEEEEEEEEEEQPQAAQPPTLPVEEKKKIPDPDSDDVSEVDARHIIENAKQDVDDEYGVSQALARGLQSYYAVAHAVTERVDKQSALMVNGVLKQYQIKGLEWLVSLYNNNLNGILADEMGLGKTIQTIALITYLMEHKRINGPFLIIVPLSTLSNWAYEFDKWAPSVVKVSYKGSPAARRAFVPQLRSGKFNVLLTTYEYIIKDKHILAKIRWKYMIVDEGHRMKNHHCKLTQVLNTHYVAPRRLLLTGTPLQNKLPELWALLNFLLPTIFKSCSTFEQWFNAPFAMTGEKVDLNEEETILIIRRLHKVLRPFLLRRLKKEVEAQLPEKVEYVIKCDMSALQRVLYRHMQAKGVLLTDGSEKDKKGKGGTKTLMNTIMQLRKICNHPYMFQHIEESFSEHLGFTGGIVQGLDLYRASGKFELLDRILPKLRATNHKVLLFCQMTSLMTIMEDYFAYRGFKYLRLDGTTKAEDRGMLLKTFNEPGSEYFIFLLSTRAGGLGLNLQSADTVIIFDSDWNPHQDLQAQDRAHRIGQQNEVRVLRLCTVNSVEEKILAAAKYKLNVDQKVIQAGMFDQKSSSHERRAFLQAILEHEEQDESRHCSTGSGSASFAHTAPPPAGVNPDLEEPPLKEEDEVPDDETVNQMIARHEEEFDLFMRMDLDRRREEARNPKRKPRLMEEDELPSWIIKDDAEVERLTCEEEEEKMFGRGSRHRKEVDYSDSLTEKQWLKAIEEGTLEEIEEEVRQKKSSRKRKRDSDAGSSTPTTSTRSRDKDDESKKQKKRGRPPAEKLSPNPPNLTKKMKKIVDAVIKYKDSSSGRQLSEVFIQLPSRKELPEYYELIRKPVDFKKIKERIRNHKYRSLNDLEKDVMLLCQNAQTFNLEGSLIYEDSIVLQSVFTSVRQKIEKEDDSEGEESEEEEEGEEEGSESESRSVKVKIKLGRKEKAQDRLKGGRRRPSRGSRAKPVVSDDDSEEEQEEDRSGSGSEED

Assay [2] concerns the target BRG-1 (Homo sapiens, UniProt P51532). In words: ATPase catalytic activity of BRG-1, ADP-Glo in vitro biochemical assay. The conditions noted are these: read-out: BRG1 IC50, 30 nM BRG-1, 400 μM ATP.
The mark [3] stands for this setting: ATPase catalytic activity, ADP-Glo.

Structures are written as SMILES. Like-named read-outs stand apart in the source and are kept apart here.

With `CN(C)c1ccc2c(n1)N(c1ccc3cnc(CNC(=O)c4ccc5c(c4)S(=O)(=O)CCOC5)cc3n1)CCC2`, the “Ratio*” value in assay [1] (ratio of BRG1 IC50 to BRM IC50) is reported as 8.59. In addition, the IC50 (commonly the concentration needed to halve the response being measured) came out at 408 nM in assay [1] (setting [3]) and 3500 nM in assay [2] (setting [3]).
As for `C[C@@H]1CN(c2cccc(-c3ccc4cnc(CNC(=O)c5cc(F)c6c(c5)S(=O)(=O)[C@@H](C)COC6)cc4c3)n2)C[C@H](C)O1`, the “Ratio*” value in assay [1] (ratio of BRG1 IC50 to BRM IC50) turned out to be 1.90. The IC50 in assay [1] (setting [3]) is 20 nM; in assay [2] (setting [3]), 38.1 nM.
For `CC1CCc2cccnc2N1c1ccc2cnc(CNC(=O)c3ccc4c(c3)S(=O)(=O)CCOC4)cc2n1` (stereo not drawn), in that order: 6.63, 258 nM and 1710 nM.
Consider `O=C(NCc1cc2nc(-c3cccc(N4CCC4)c3)ccc2nn1)c1ccc2c(c1)S(=O)(=O)CCOC2`, for which, in assay [1] (ratio of BRG1 IC50 to BRM IC50), the “Ratio*” value was 18.06. The IC50 in assay [1] (setting [3]) turned out to be 13.9 nM; in assay [2] (setting [3]) it was 251 nM.
`C[C@@H]1CN(c2cccc(-c3ccc4cnc(CNC(=O)c5cnc6c(c5)S(=O)(=O)CCC5C6C5(F)F)cc4n3)n2)C[C@H](C)O1` (stereo partly drawn): the “Ratio*” value in assay [1] (ratio BRG1 IC50 / BRM IC50) stood at 2.21. Moreover, the IC50 was determined as 19.7 nM in assay [1] (ADP-Glo ATPase assay) and 43.5 nM in assay [2] (ADP-Glo ATPase assay).
As for `C[C@H]1COCc2ccc(C(=O)NCc3cc4nc(-c5cc(F)cc(OC(F)F)n5)ccc4cn3)cc2S1(=O)=O`, the “Ratio*” value in assay [1] (ratio of BRG1 IC50 to BRM IC50) is 31.69. For the same compound, the IC50 in assay [1] (setting [3]) is 52.9 nM; in assay [2] (setting [3]), 1680 nM.
With `C[C@@H]1CN(c2cccc(-c3ccc4cnc(CNC(=O)c5ccc6c(c5)S(=O)(=O)[C@@H](C)COC6)cc4c3)n2)C[C@H](C)O1`, in assay [1] (ratio of BRG1 IC50 to BRM IC50), the “Ratio*” value amounted to 2.15. Also, the IC50 in assay [1] (setting [3]) is 11 nM; in assay [2] (setting [3]) it was 23.6 nM.
`CC1CCN(C)c2nc(-c3ccc4cnc(CNC(=O)c5ccc6c(c5)S(=O)(=O)CCOC6)cc4n3)ccc21` (stereo not drawn): the “Ratio*” value in assay [1] (ratio of BRG1 IC50 to BRM IC50) was 18.38. Besides, the IC50 in assay [1] (setting [3]) was found to be 38.8 nM; in assay [2] (setting [3]), 713 nM.
On to `O=C(NCc1cc2nc(-c3cccc(C4CC4)c3)ccc2cn1)c1cnc2c(c1)S(=O)(=O)CCOC2`, for which the IC50 was 148 nM in assay [1] (ADP-Glo ATPase assay) and 1520 nM in assay [2] (ADP-Glo ATPase assay). Also, the “Ratio* (BRG1 IC50 (μM) divided by BRM IC50 (μM))” value in assay [1] was determined as 10.29.
For `CN1CCc2cc(-c3ccc4cnc(CNC(=O)c5ccc6c(c5)S(=O)(=O)CCOC6)cc4n3)ccc21`, in that order: 236 nM, 722 nM and 3.06.
As to `C[C@@H]1CN(c2cccc(-c3ccc4nnc(CNC(=O)c5ccc6c(c5)S(=O)(=O)CCOC6)cc4n3)c2)C[C@H](C)O1`, the “Ratio*” value in assay [1] (ratio of BRG1 IC50 to BRM IC50) worked out at 12.46. For the same compound, the results for the IC50 in assay [1] (setting [3]) and in assay [2] (setting [3]) were 5.8 nM and 72.4 nM, respectively.
Turning to `CN1CCc2ccc(-c3ccc4cnc(CNC(=O)c5ccc6c(c5)S(=O)(=O)CCOC6)cc4n3)cc21`, the IC50 is 135 nM in assay [1] (ADP-Glo ATPase assay) and 751 nM in assay [2] (ADP-Glo ATPase assay). Further, the “Ratio* (BRG1 IC50 (μM) divided by BRM IC50 (μM))” value in assay [1] came to 5.56.
Turning to `C[C@@H]1CN(c2cccc(-c3ccc4cnc(CNC(=O)c5ccc6c(c5)S(=O)(=O)C5(CC5)COC6)cc4n3)n2)C[C@H](C)O1`, the “Ratio*” value in assay [1] (ratio BRG1 IC50 / BRM IC50) is listed as 22.41. In addition, the results for the 50% inhibitory concentration (IC50) in assay [1] (ADP-Glo ATPase assay) and in assay [2] (ADP-Glo ATPase assay) were 48.2 nM and 1080 nM, respectively.
Take `C[C@@H]1CN(c2cccc(-c3ccc4cnc(CNC(=O)c5ccc6c(c5)S(=O)(=O)CCCCO6)cc4n3)n2)C[C@H](C)O1`: the “Ratio*” value in assay [1] (ratio of BRG1 IC50 to BRM IC50) is given as 6.24. The figures for the IC50 in assay [1] (setting [3]) and in assay [2] (setting [3]) were 9.9 nM and 61.6 nM, respectively.
